{"source": "the supplement of paper PMC10127200", "experiment_in_all_cases": "Euclidean distance of Cell Painting phenotypic profile (signed KS, 77 features) to DMSO centroid (dimensionless distance); higher = stronger phenotypic change vs DMSO (phenoactivity)", "details_in_all_cases": "48 h; 5 or 10 uM (library dependent)", "key": {"786-O": {"tested_on": "786-O", "summary_of_the_method": "(§1)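 Phenoactivity is defined as the Euclidean distance from a compound profile to the median vehicle profile. Each profile comprised 77 Harmony features, scored as signed Kolmogorov-Smirnov statistics versus same-plate vehicle wells, then plate-position corrected, correlation-weighted and replicate-averaged at the top dose. Five cancer lines and one healthy fibroblast line were exposed to library compounds for 48 h at 10 or 5 uM (0.1% DMSO final).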"}, "A549": {"tested_on": "A549", "summary_of_the_method": "as §1"}, "DU145": {"tested_on": "DU145", "summary_of_the_method": "as §1"}, "FB": {"tested_on": "FB", "summary_of_the_method": "as §1"}, "HEPG2": {"tested_on": "HEPG2", "summary_of_the_method": "as §1"}, "OVCAR4": {"tested_on": "OVCAR4", "summary_of_the_method": "as §1"}}, "note": "Most of the highest values are listed elsewhere, so they are rarer here than in the full data.", "data": [{"smiles": "COc1cc(Br)c(C[N+]2(CCOCCC3CCC4CC3C4(C)C)CCOCC2)cc1OC", "note": "(stereo unspecified) [Pinaverium bromide]", "values": [{"measurement": "Euclidean distance", "setting": "786-O", "result": 1.4}, {"measurement": "Euclidean distance", "setting": "A549", "result": 1.3}, {"measurement": "Euclidean distance", "setting": "DU145", "result": 1.49}, {"measurement": "Euclidean distance", "setting": "FB", "result": 1.51}, {"measurement": "Euclidean distance", "setting": "HEPG2", "result": 1.01}, {"measurement": "Euclidean distance", "setting": "OVCAR4", "result": 1.24}]}]}
